# Test system: Mice
# Test: Miles assay (induced vessel permeability)
# Assay type: in vivo
# Conditions: FIGS. 9A-9D
# Experimental: One of the problems with angiogenesis-dependent diseases is increased vessel permeability (due to high levels of VPF) which results in edema and loss of proteins. A decrease in vessel permeability is beneficial in those diseases. We have found, using the Miles assay ([…], et al., Cancer Res, 56:172-181 (1996)), that free and bound TNP-470 block permeability. Briefly, a dye, Evans Blue (1% in PBS), was injected i.v. to anesthesized mice. After 10 min, human recombinant VEGF165 (50 ng/50 μl) was injected intradermally into the back skin. Leakage of protein-bound dye was detected as blue spots on the underside of the back skin surrounding the injection site. After 20 min mice were euthanized. Then, the skin was excised, left in formamide for 5 days to be extracted and the solution read at 620 nm. Putative angiogenesis inhibitors such as free and conjugated TNP-470 were injected daily 3 days (30 mg/kg/day) prior to the VEGF challenge. The same was repeated on tumor-bearing mice to evaluate the effect of angiogenesis inhibitors on tumor vessel permeability.
substance,measurement,value
"Herceptin: ""indirect"" angiogenesis inhibitor",vessel permeability,no effect

# Reference: patent US20050112063A1, “Methods for inhibiting vascular permeability” (priority 2002, published 2005)
